Assay results from US10265303B2, “Hyperphenylalaninemia and treatments thereof” (BERGEN TEKNOLOGIOVERFØRING AS, priority 2015, dated 2019).

Amino acid sequences for entries named in this document (tags omitted).
UniProt P00439, whole entry: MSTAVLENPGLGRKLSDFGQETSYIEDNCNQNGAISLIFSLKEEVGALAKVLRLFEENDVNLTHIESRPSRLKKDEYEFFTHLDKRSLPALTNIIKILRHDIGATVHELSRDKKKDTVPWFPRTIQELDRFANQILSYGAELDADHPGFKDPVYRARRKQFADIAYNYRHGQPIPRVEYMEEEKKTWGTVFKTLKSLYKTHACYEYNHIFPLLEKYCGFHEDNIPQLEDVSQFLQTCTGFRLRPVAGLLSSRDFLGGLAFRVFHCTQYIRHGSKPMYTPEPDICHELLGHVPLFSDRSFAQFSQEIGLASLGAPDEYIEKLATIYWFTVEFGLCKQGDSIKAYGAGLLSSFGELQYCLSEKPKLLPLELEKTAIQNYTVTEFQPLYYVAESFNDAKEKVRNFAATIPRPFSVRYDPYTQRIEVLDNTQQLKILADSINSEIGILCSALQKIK

Experiments:
human wild-type PAH = human wild-type PAH (Homo sapiens, UniProt P00439); assay: PAH activity in lysates of HEK293 cells permanently expressing human wild-type PAH; conditions: 0.04 mg/ml compound, 1% DMSO, 8 h; Table 3
hPAH = hPAH (Homo sapiens, UniProt P00439); assay: SPR screening and affinity determination on immobilized hPAH (Biacore T200); conditions: read-out: KD (μM) ± SER, 25° C., compound 0-500 μM in 5% DMSO, affinities said to be overestimated, relative KD reliable

Structure (SMILES): COc1ccc(Cc2c(O)nc(N)nc2O)cc1
- PAH activity-cells (%) (human wild-type PAH): 112 ± 10%
- Kd (hPAH): 860 µM
